Measurements reported in PMC9190043, “Discovery of a High Affinity Adenosine A1/A3 Receptor Antagonist with a Novel 7-Amino-pyrazolo[3,4-d]pyridazine Scaffold” (ACS Medicinal Chemistry Letters, 2022).

By UniProt entry, the sequences of proteins in these tests, tags left out. Where a name states a change or a piece, a line headed by the entry shows the natural chain unless it says otherwise.
UniProt P30542, whole entry: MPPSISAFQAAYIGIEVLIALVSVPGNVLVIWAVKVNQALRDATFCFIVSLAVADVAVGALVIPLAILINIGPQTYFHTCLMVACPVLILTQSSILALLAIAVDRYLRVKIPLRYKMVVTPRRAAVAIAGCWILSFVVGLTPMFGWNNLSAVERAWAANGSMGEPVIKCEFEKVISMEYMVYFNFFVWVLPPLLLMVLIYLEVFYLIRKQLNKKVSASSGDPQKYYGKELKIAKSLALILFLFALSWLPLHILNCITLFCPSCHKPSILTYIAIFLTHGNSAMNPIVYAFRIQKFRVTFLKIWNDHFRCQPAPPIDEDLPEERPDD

Molecular target: T1, Nluc-A1R (Homo sapiens, UniProt P30542)
T1 construct: expressed in transfected cells; host or cells: HEK293
Test: NanoBRET binding, displacement of CA200645
Details: Nluc-A1R HEK293 cells, CA200645 tracer, mean ± SEM; # values are estimates (incomplete displacement)

pKi: 7.29 ± 0.27
SMILES: O=C(Cc1ccccc1)Nc1nc2ccc(Cl)cc2c2nc(-c3ccco3)nn12 [MRS1220]
